## Measured affinities in a library of Ab-14 heavy chain variants

Reference: Engelhart et al. 2022, doi:10.1038/s41597-022-01779-4. File: FLAb, binding data.

Antigen: PDVDLGDISGINAS, a 14-residue peptide of the SARS-CoV-2 spike HR2 region.

Each scFv is VH, a 15-residue (Gly4Ser)3 linker, VL, as in the parent Ab-14, and differs from it in the CDRs of the heavy chain only.
VH: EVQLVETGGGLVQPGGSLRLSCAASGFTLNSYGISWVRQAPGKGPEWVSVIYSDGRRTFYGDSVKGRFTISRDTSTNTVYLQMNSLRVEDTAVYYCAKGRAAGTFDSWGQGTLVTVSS
VL: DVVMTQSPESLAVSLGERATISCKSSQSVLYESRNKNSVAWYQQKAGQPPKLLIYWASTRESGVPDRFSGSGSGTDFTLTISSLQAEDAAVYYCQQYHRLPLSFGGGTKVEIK

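The starting antibody came from a phage panning campaign against this peptide. Library AAYL49 holds single substitutions and randomly drawn double and triple substitutions in the CDRs. In AlphaSeq, yeast of one mating type display the scFv and yeast of the other type display the target. After mating in shaken culture at 30 °C for 16 h, diploids were selected and their barcode pairs sequenced. Read counts were normalised to the haploid input and turned into Kd by a linear fit to BCL2-family pairs of known affinity, for each replicate. Each pool was mated in three replicate cultures.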

The parent's heavy chain CDRs are GFTLNSYGIS, VIYSDGRRTFYGDSVK, GRAAGTFDS; each variant's own CDRs replace them letter for letter. The read-out is the apparent dissociation constant on a log10 scale (nM): the lower, the stronger. A mean of the replicates is given; it leaves out those without a signal. "not detected" means that the variant was in the library but no mating with the target was seen in any replicate; the authors take this as a sign of poor binding, and no number exists. Entries are sorted by rising average, undetected variants last. Nonspecific signal, from three strains lacking the peptide, appeared in 15% of pairings of library AAYL49, centred on 4.06 (5% of these signals below 2.83); values are not corrected for it.

"mean, log10 nM",detected,CDR-H1,CDR-H2,CDR-H3
0.26,3 of 3,GFTLSSYGIS,VIYSDGRRTFYGDSVK,GRAAGTFES
0.28,3 of 3,GFTLNSYGIS,VIYSDGRRTFYQDSVK,GTAAGTFDS
1.05,3 of 3,GFTANSYGIS,VIYSDGRRTAYGDSVK,GRLAGTFDS
1.93,1 of 3,GFTHNSYGIS,VIYSDGRRTFYGDSVK,GQQAGTFDS
2.33,1 of 3,GFTLNSYGIS,VTYSDGRRTFYVDSVK,GRAAGTFPS
2.61,2 of 3,GFTLNSYGFP,VIYSDGRRTFYGDSVK,GAAAGTFDS
2.81,2 of 3,GFTLNSYSIS,VIYSDGRRTFYGDSVK,GRAAETQDS
3.18,2 of 3,GFTLNSTGIS,VIYSDGRRVFYGDSVK,GRAAGTCDS
3.23,2 of 3,GFTLNSYGIS,VIYSDGRTTFYGDSVH,GRAAGTFDS
3.28,3 of 3,GETLNSYGIS,VIYSDGRRTTYGDSVK,GRAAGSFDS
3.34,1 of 3,GDTNNSYGIS,VIYSDGRRTTYGDSVK,GRAAGTFDS
3.38,1 of 3,GFTLNSYGIS,VIYSDGARTFYGDVVK,GRFAGTFDS
3.47,1 of 3,GFTLNSSGIS,VIYSDGRRTFYGDSVA,GRAAGTFDM
3.66,2 of 3,SFTLNSYGIS,VIYSDGRRTFYGDSVK,GRAAGTYDS
3.69,2 of 3,GFTLNSYGCS,VIYSDGRRTCYGDSVK,GRAAGTFIS
3.83,3 of 3,GFTLNLYGIS,VIYSDGRRTFYGGSVK,PRAAGTFDS
4.03,2 of 3,GTTLNSYGIS,VIYSDGRRTFYGDSVK,GRFSGTFDS
4.47,2 of 3,GFTLDSYGIS,VTYSDGRPTFYGDSVK,GRAAGTFDS
4.51,1 of 3,GFTLNSYGIS,CIYSDGRRTFYGDSVT,VRAAGTFDS
4.52,1 of 3,GFTLNSYGIS,VIYSDGRYTFYSDSVA,GRAAGTFDS
4.55,1 of 3,SFTLNSYGIS,VIYSDGRCTFYGDSVK,GRAAHTFDS
4.69,3 of 3,GFTLVSYGIS,VIYSDGRRTQYGDAVK,GRAAGTFDS
4.94,1 of 3,GFTLNSYGIS,VIYEDGRRTFYGDSVK,WRCAGTFDS
4.97,1 of 3,GFTLNSYGII,VIYSDGRRTFYQDSVK,GRARGTFDS
5.01,2 of 3,GFTLNSYGIS,VIYSDGRRTFYGQSVK,PRVAGTFDS
5.03,3 of 3,GFTYNSYGIS,VIYSDGRRTFYGVSVK,GRAAGTFDM
5.10,2 of 3,GFTLNSYGIS,VIYSDGRETFYCDSVK,GRAAGTFDN
5.11,2 of 3,GFTDNSYGIS,NIYSDGRRTFYGCSVK,GRAAGTFDS
5.92,1 of 3,GFTLNSYGIS,VIYSHGRPTCYGDSVK,GRAAGTFDS
not detected,0 of 3,GFTGNSYGIS,VIYPDGRNTFYGDSVK,GRAAGTFDS
not detected,0 of 3,GMTLNSYGIS,VIYIVGRRTFYGDSVK,GRAAGTFDS
not detected,0 of 3,GFTLNSYGIS,VCWSDGRRTFYGASVK,GRAAGTFDS
not detected,0 of 3,GFTLHSYGIS,VVYYDGRRTFYGDSVK,GRAAGTFDS
not detected,0 of 3,GFTLNSYGIS,VIYSDGRRTFYGDSVK,GRVDGTFLS
not detected,0 of 3,GFTLTSYGIQ,VIYSDGRRTFYGDSSK,GRAAGTFDS
not detected,0 of 3,PFTLNSYGIS,VIYSDGRRTFYGDSSK,GRAAGTWDS
not detected,0 of 3,EFTMNSYGIS,VIYSPGRRTFYGDSVK,GRAAGTFDS
not detected,0 of 3,GFTLNSYGIS,VIYSDYRRTFYGDSVK,GRAAETNDS
not detected,0 of 3,GFTLNSYGIS,VIYSSGRRRFYGDSVK,GREAGTFDS
not detected,0 of 3,GFTLNSYGIS,KIYSDGRRTFYGDSVK,VRANGTFDS
not detected,0 of 3,GFTLNSYGIS,MIYSGGRRTFYGDSVK,GRAAGTFDN
not detected,0 of 3,GFVLNSYGIS,DIYSDGRRTFYGDSVK,GRAADTFDS
not detected,0 of 3,GFTCNSYGIS,VIYPDGRRTFYGDSVK,GRAAGTFVS
not detected,0 of 3,AFTLNSYAIS,VIYSDGRRTFYMDSVK,GRAAGTFDS
not detected,0 of 3,GATLNLYGII,VIYSDGRRTFYGDSVK,GRAAGTFDS
not detected,0 of 3,GFTLNSYGIS,VIYSDGRRGEYGDSVK,LRAAGTFDS
not detected,0 of 3,GFTLNSYGIS,VIYSDGRRTFDGQSVG,GRAAGTFDS
not detected,0 of 3,LFTLNSYGKS,VIYSDGRWTFYGDSVK,GRAAGTFDS
not detected,0 of 3,GFTLNSYGQS,VIPSDGRRTFYWDSVK,GRAAGTFDS
not detected,0 of 3,GFTLNSYGIG,VIYSVGRRTFYGDSVK,GRAKGTFDS
not detected,0 of 3,GFTLNSYGIS,VNYSDGRRTFYGDSVK,GRCAGTFDS
not detected,0 of 3,GFTLNSYGIS,VIYSDGARTFAGDSVK,GRAAGTSDS
not detected,0 of 3,GFTLNSYGIS,VIYSFGRRTFYGDSDK,GRAAYTFDS
not detected,0 of 3,GFTLNSYGIS,VIYSDGRCTFYGDSVK,VRAAGSFDS
not detected,0 of 3,GFTLNSDGIS,VIYSDGRRTFYGDSVY,GRGAGTFDS
not detected,0 of 3,GFTLNSYGIS,VIYSDGDNTLYGDSVK,GRAAGTFDS
not detected,0 of 3,GFTLNSYGIS,VIYSDGRRTFYFDSVK,PRAAGTFDS
not detected,0 of 3,GFTLNSYGIN,PIYSDGRREFYGDSVK,GRAAGTFDS
not detected,0 of 3,GFTLNGYGIS,VIYSDNRRTFYGDSVK,LRAAGTFDS
not detected,0 of 3,GFTLNSYGIS,VIYSYGRRTFYTDSVK,GRAAGTIDS
not detected,0 of 3,YFTLNSYGIS,VIYSDGRRTFMGDRVK,GRAAGTFDS
not detected,0 of 3,GFTLNSYGIS,VIYRDGRRTFYGDSVK,GRAAGVFDW
not detected,0 of 3,GFTLNSYGIS,VIYSLGRRTFYGDSVK,GNAANTFDS
not detected,0 of 3,EFTLNSLGIS,VIYSDGRRTFYGDSIK,GRAAGTFDS
not detected,0 of 3,GFTLNSYVIQ,VIYSDGRRTFYGDHVK,GRAAGTFDS
not detected,0 of 3,GFTLNSYGIR,VIYSDQRRTFYGDSVK,GRAAGTFDK

Top 5 of the variants detected in all replicates, tightest first:

CDR-H1,CDR-H2,CDR-H3,"mean, log10 nM",detected
GFTLSSYGIS,VIYSDGRRTFYGDSVK,GRAAGTFES,0.26,3 of 3
GFTLNSYGIS,VIYSDGRRTFYQDSVK,GTAAGTFDS,0.28,3 of 3
GFTANSYGIS,VIYSDGRRTAYGDSVK,GRLAGTFDS,1.05,3 of 3
GETLNSYGIS,VIYSDGRRTTYGDSVK,GRAAGSFDS,3.28,3 of 3
GFTLNLYGIS,VIYSDGRRTFYGGSVK,PRAAGTFDS,3.83,3 of 3

Parent in this assay: reference entry 0.65, copy in this library 4.11 (one replicate of three).